75 molecules from PubChem BioAssay AID652105 (National Center for Advancing Translational Sciences (NCATS), 2013) can be followed below.

Sequences of proteins named here, by UniProt entry; tags and fusion partners are left off.
UniProt P48426, whole entry: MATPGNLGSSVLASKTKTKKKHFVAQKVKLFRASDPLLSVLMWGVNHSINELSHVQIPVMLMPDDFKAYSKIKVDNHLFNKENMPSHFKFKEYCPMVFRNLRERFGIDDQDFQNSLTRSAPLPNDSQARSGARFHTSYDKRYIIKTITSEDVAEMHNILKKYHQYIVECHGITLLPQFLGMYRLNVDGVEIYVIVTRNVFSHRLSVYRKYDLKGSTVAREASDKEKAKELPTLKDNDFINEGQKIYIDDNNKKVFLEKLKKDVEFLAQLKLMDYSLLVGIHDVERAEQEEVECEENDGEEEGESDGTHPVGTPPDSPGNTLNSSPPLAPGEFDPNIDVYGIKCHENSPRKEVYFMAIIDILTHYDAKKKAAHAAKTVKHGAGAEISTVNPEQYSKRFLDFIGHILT

This is a selection; strong and weak results do not stand in their true shares. Active and inactive are the calls of the source. The calls were made as follows: active = max response of -50% or lower; inconclusive = between -30% and -50%; inactive = -30% or higher.
% is scaled to controls: 0 for no effect and ±100 for the full control effect.

The target of this experiment is Phosphatidylinositol 5-phosphate 4-kinase type-2 alpha (Homo sapiens) (UniProt P48426). The experiment in a line: qHTS for Inhibitors of phosphatidylinositol 5-phosphate 4-kinase (PI5P4K). Also: value at the top dose of about 77 µM. As to conditions: PI5P4Kalpha enzyme, ADP-Glo luminescence, 60 min; hits give low values. An excerpt: In addition to finding PI5P, we discovered the type II phosphatidylinositol 5-phosphate 4-kinase (PI5P4K) family (alpha, beta, gamma isoforms) that catalyze the conversion of PI5P to PI(4,5)P2. Alternatively, PI(4,5)P2 can also be synthesized through phosphatidylinositol-4-phosphate (PI4P) by the type I phosphatidylinositol 4-phosphate 5-kinases (PI4P5K). These PI5P4K enzymes therefore represent one way by which cells can regulate endogenous PI5P levels and play important roles in insulin signaling and in stress responses.
This proposal aims to identify and optimize specific modulators of human PI5P4K, phosphatidylinositol-5-phosphate 4-kinase (Type II PIPK), a family of kinases that regulate AKT signaling and tumor cell growth. In this project we aim to identify inhibitors of human PI5P4K using a quantitative high-throughput screening approach against the MLSMR containing ~400,000 small molecules.
NIH Chemical Genomics Center [NCGC]
NIH Molecular Libraries Probe Centers Network [MLPCN]
Assay Submitter (PI): Atsuo Sasaki, Beth Israel Deaconess Medical Center
2 microL of PI5P4Kalpha/substrate buffer (columns 1-2, 5-48) are dispensed into Greiner white solid bottom 1536-well assay plates; column 3 receives only PI5P4Kalpha buffer as 0x substrate controls; column 4 receives only substrate buffer as 0x PI5P4Kalpha controls. Final assay buffer consists of 0.038 M HEPES pH 7.4, 0.28 mM EGTA, 0.1% CHAPS, and 5% DMSO (final concentration). Compounds are then transferred via Kalypsys pin tool equipped with 1536-pin array (10 nL slotted pins, V&P Scientific, San Diego, CA). Following addition of compound, 1 microL of ATP (5 microM final concentration, all columns) is added to initiate the reaction. ATP is diluted in an assay buffer consisting of 0.02 M HEPES pH 7.4, 60 mM MgCl2, 15 microM ATP, and 0.1% CHAPS. The plates are then incubated at room temperature for 60 minutes. ADP-Glo reagent 1 is added (2 microL) and plates incubated for 45 minutes, before ADP-Glo reagent 2 (4 microL) is added and plates incubated for 30 minutes. They are then transferred to a ViewLux high-throughput CCD imager (PerkinElmer) wherein single end-point measurements of luminescence are acquired using a clear filter.
On the technique in general: Quantitative high-throughput screening tests each substance at several concentrations.
On to `COc1ccc(OP(C)(=O)Nc2cccc(Br)c2)cc1` (stereo not given), for which the max response was inactive: -0.282%.
As for `Cc1c(C(c2ccc3c(c2)OCO3)c2c(C)n(C)n(-c3ccccc3)c2=O)c(=O)n(-c2ccccc2)n1C.O=[N+]([O-])c1cc([N+](=O)[O-])c(O)c([N+](=O)[O-])c1`, the max response was inactive: 8.14%.
With `Cc1cc(-c2cccc3ccccc23)c(C)cn1.O=[N+]([O-])c1cc([N+](=O)[O-])c(O)c([N+](=O)[O-])c1` the figure was inactive: -7.12%.
Take `O=[N+]([O-])c1ccc(OP2(=O)COCCO2)cc1` (stereo not given): the max response was inactive: 2.92%.
With `CCOP(C)(=S)SCC(=O)NC(C)(CC)C(=O)O` (stereo not given) the figure was inactive: 3.36%.
For the molecule `CP(=O)(Nc1ccc(SC(F)(F)F)cc1)Oc1ccc(F)cc1` (stereo not given), the max response is inactive: 7.99%.
With `O=[N+]([O-])c1cc([N+](=O)[O-])c(C(F)(F)F)c([N+](=O)[O-])c1O` the figure was inactive: -2.93%; with `Cc1ccccc1NP(C)(=O)Nc1ccccc1C`, inactive: -1.95%; with `CP(=O)(Nc1ccc2c(c1)OCCO2)Oc1ccccc1` (stereo not given), inactive: -1.26%.
Turning to `CC(C)c1ccc(OP(C)(=O)Nc2ccc(SC(F)(F)F)cc2)cc1` (stereo not given), the max response is inactive: 32.9%.
`O=C(OCCN1CCN(CCOCc2ccccc2)CC1)C(O)(c1ccccc1)c1ccccc1`: the max response is inactive: 0.921%.
With `COc1ccc(OP(C)(=O)Nc2ccc(SC(F)(F)F)cc2)cc1` (stereo not given) the figure was inactive: 11%.
In the case of `CCOC(=O)c1ccc(NP(C)(=O)Oc2ccc(F)cc2)cc1` (stereo not given), the max response was inactive: -3.1%.
For `CCCCCOc1ccc(NP(C)(=O)Oc2ccc(Cl)cc2Cl)cc1` (stereo not given), the max response was inactive: 29.7%.
For the molecule `CCN(CC)CCCOC(=O)C(O)(c1ccccc1)C1CCCCC1` (stereo not given), the max response was inactive: -0.71%.
As to `Cc1c([N+](=O)[O-])cc([N+](=O)[O-])c(Br)c1[N+](=O)[O-]`, the max response was inactive: -21.3%.
Take `COc1ccc(OP(C)(=O)Nc2ccccc2Br)cc1` (stereo not given): the max response was inactive: -4.19%.
With `COc1ccccc1OP(C)(=O)Nc1ccc(C)c(C)c1` (stereo not given), the max response was inactive: -0.0312%.
In the case of `Cc1cc(C)cc(OP(C)(=O)Nc2cccc(C(F)(F)F)c2)c1` (stereo not given), the max response was inactive: 13.1%.
For `CP(=O)(OCCOc1ccccc1)OCCOc1ccccc1`, the max response was inactive: 1.7%.
As to `CCCCCCCCCCCCCCCC1C[N+](C)(C)CCOP(C)(=O)O1` (stereo not given), the max response is inactive: -1.57%.
Take `CP(=O)(Nc1ccc(Cl)cc1Cl)Oc1ccccc1` (stereo not given): the max response was inactive: 9.08%.
Regarding `COc1ccccc1OP(C)(=O)Nc1ccc(Br)cc1` (stereo not given), the max response is inactive: 3.94%.
As for `CCc1ccc(OP(C)(=O)O)cc1`, the max response was inactive: 8.04%.
Consider `CP(=O)(Nc1ccccn1)Oc1ccccc1` (stereo not given), for which the max response was inactive: -6.71%.
Regarding `COc1ccccc1OP(C)(=O)Nc1ccc(C)cc1C` (stereo not given), the max response is inactive: -2.95%.
The same measure for `O=[N+]([O-])c1cc([N+](=O)[O-])c(Nc2ccccn2)c([N+](=O)[O-])c1`: inactive: 0.0984%; for `Cc1c(NP(C)(=O)Oc2ccc(C(C)C)cc2)c(=O)n(-c2ccccc2)n1C` (stereo not given): inactive: 0.25%.
In the case of `CP(=O)(Oc1ccccc1)N1CCOC1=O` (stereo not given), the max response is inactive: -2.08%.
On to `CCc1ccc(OP(C)(=O)Nc2cccnc2)cc1` (stereo not given), for which the max response is inactive: 2.36%.
As for `COc1ccccc1OP(C)(=O)Nc1c(C)n(C)n(-c2ccccc2)c1=O` (stereo not given), the max response is inactive: -4.78%.
For the molecule `O=C(OCCCN1CCCC1)C(O)(c1ccccc1)C1CCCCC1` (stereo not given), the max response is inactive: 1.01%.
Consider `CCN(CC)CC(O)COC(=O)C(O)(c1ccccc1)C1CCCCC1` (stereo not given), for which the max response is inactive: 1.69%.
For the molecule `COc1ccc(OP(C)(=O)Nc2ccc(Br)cc2)cc1` (stereo not given), the max response was inactive: 7.03%.
On to `CN(C)C(=O)c1c([N+](=O)[O-])cc([N+](=O)[O-])cc1[N+](=O)[O-]`, for which the max response was inactive: -15.8%.
In the case of `COc1ccccc1OP(C)(=O)Nc1ccccc1Br` (stereo not given), the max response was inactive: 2.48%.
With `CCOC(=O)c1ccc(NP(C)(=O)Oc2ccc(Cl)cc2)cc1` (stereo not given) the figure was inactive: -0.26%.
`Nc1ccc2c(ccc3cccnc32)n1.O=[N+]([O-])c1cc([N+](=O)[O-])c(O)c([N+](=O)[O-])c1`: the max response was inactive: -26%.
As to `COc1ccccc1OP(C)(=O)Nc1ccccc1` (stereo not given), the max response is inactive: -0.82%.
Turning to `CP(=O)(Nc1ccccc1Br)Oc1ccccc1` (stereo not given), the max response is inactive: 0.0356%.
As for `CP(=S)(Nn1cnnc1)Oc1ccccc1` (stereo not given), the max response is inactive: 5%.
The same measure for `CCc1ccc(OP(C)(=O)N2CCN(c3ccc([N+](=O)[O-])cc3)CC2)cc1` (stereo not given): inactive: 0.809%; for `Cc1cc(C)cc(OP(C)(=O)Nc2ccc(SC(F)(F)F)cc2)c1` (stereo not given): inactive: 18.7%; for `Cc1cccc(C)c1OP(C)(=O)Nc1ccc(SC(F)(F)F)cc1` (stereo not given): inactive: 18.4%.
With `CP(=O)(Nc1ccc(SC(F)(F)F)cc1)Oc1ccc(Cl)cc1` (stereo not given) the figure was inactive: 13.3%; with `CP(=O)(Oc1ccccc1)OC(c1ccccc1)C(F)(F)F` (stereo not given), inactive: 1.21%.
`CCOP(C)(=S)SCC(=O)NC(C)C(=O)O` (stereo not given): the max response was inactive: -4.79%.
As to `CCOC(=O)c1ccc(NP(C)(=O)Oc2ccc(OC)cc2)cc1` (stereo not given), the max response was inactive: -6.43%.
Take `O=[N+]([O-])c1cc([N+](=O)[O-])c(O)c([N+](=O)[O-])c1.c1ccc(Oc2ccncc2)cc1`: the max response was inactive: -23%.
Take `CCN(CC)CCCOC(=O)C(O)(c1ccccc1)c1ccccc1`: the max response is inactive: 2.57%.
Take `COc1ccccc1-c1ccccn1.O=[N+]([O-])c1cc([N+](=O)[O-])c(O)c([N+](=O)[O-])c1`: the max response is inactive: -12.8%.
Regarding `CC(C)(C)c1ccc(OP(C)(=O)Nc2ccc(SC(F)(F)F)cc2)cc1` (stereo not given), the max response was inactive: 18.4%.
Take `Cc1cccc(C)c1OP(C)(N)=O` (stereo not given): the max response is inactive: 5.2%.
For `O=[N+]([O-])c1ccc2c(c1)C=Nc1ccccc1O2`, the max response was inactive: 2.47%.
On to `O=[N+]([O-])c1cc([N+](=O)[O-])c(Nc2cccnc2)c([N+](=O)[O-])c1`, for which the max response was inactive: -20.1%.
As to `COc1ccccc1OP(C)(=O)Nc1cc(Cl)ccc1C` (stereo not given), the max response is inactive: 1.75%.
As to `COc1ccc(OP(C)(=O)Nc2cccc(F)c2)cc1` (stereo not given), the max response is inactive: 3.47%.
As for `Cc1cc(C)cc(OP(C)(N)=O)c1` (stereo not given), the max response is inactive: 5.85%.
As to `CCOC(=O)c1ccc(NP(C)(=O)Oc2ccccc2)cc1` (stereo not given), the max response was inactive: -4.66%.
In the case of `COc1ccccc1OP(C)(=O)Nc1ccc(C)cc1` (stereo not given), the max response is inactive: 7.92%.
Take `Cc1ccc(NP(C)(=O)Oc2ccccc2)c(C)c1` (stereo not given): the max response was inactive: 1.97%.
Consider `CC1=NCCc2c1[nH]c1ccccc21.O=[N+]([O-])c1cc([N+](=O)[O-])c(O)c([N+](=O)[O-])c1`, for which the max response is inactive: -13.5%.
On to `CCOC(=O)c1ccc(NP(C)(=O)Oc2cc(C)cc(C)c2)cc1` (stereo not given), for which the max response is inactive: 5.74%.
`COc1ccccc1OP(C)(=O)Nc1cccc(Br)c1` (stereo not given): the max response was inactive: -1.61%.
In the case of `CP(=O)(Nc1cccc(Br)c1)Oc1ccccc1` (stereo not given), the max response is inactive: 3.78%.
For the molecule `Cc1ccc(C)c(NP(C)(=O)Oc2ccccc2)c1` (stereo not given), the max response was inactive: 8.76%.
On to `CN(Cc1cccnc1)C(=O)COc1ccc(Cl)c(Cl)c1.O=[N+]([O-])c1cc([N+](=O)[O-])c(O)c([N+](=O)[O-])c1`, for which the max response is inactive: -20.4%.
Turning to `O=[N+]([O-])c1cc([N+](=O)[O-])c(-c2cnn(-c3ccccc3)c2)c([N+](=O)[O-])c1`, the max response was inactive: -1.73%.
As to `O=[N+]([O-])c1cc([N+](=O)[O-])c(Nc2nnnn2CCO)c([N+](=O)[O-])c1`, the max response was inactive: -24.8%.
With `CC1=C2N=C(C=C3N=C(C(C)=C4[N-][C@@](C)([C@@H]5N=C1[C@](C)(CCC(=O)NC[C@@H](C)OP(=O)([O-])O[C@H]1[C@@H](O)[C@@H](n6cnc7cc(C)c(C)cc76)O[C@@H]1CO)[C@H]5CC(N)=O)[C@@](C)(CC(N)=O)[C@@H]4CCC(N)=O)[C@@](C)(CC(N)=O)[C@@H]3CCC(N)=O)C(C)(C)[C@@H]2CCC(N)=O.[C-]#N.[Co+3]` the figure was inactive: -23%; with `CP(=O)(Nc1ccc(SC(F)(F)F)cc1)Oc1ccccc1` (stereo not given), inactive: 1.81%; with `CCCOc1ccc(NP(C)(=O)Oc2ccc(Cl)cc2)cc1` (stereo not given), inactive: 9.43%.
Regarding `COc1ccc(-c2ccccn2)cc1.O=[N+]([O-])c1cc([N+](=O)[O-])c(O)c([N+](=O)[O-])c1`, the max response was inactive: -18.1%.
With `COc1ccccc1OP(C)(=O)Nc1c(C)cccc1C` (stereo not given) the figure was inactive: 4.29%; with `CN1CCCCC1COC(=O)C1(O)c2ccccc2CCc2ccccc21` (stereo not given), inactive: 2.91%.
